One may read the Ki as the equilibrium dissociation constant of an inhibitor or competing ligand from its target. What is called IC50 is the point on the concentration scale where inhibition reaches its midpoint. A lower IC50 goes with higher potency.

Amino acid sequences for entries named in this document (tags omitted).
UniProt P33533, whole entry: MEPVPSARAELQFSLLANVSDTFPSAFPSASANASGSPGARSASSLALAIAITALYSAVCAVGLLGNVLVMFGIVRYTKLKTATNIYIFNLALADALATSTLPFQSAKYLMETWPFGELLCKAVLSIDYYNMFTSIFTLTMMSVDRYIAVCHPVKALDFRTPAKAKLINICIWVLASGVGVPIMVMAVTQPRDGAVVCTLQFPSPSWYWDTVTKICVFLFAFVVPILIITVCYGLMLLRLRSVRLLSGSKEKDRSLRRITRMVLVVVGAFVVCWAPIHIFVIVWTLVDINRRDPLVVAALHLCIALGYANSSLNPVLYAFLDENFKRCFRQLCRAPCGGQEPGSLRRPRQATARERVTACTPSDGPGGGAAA
UniProt P32300, whole entry: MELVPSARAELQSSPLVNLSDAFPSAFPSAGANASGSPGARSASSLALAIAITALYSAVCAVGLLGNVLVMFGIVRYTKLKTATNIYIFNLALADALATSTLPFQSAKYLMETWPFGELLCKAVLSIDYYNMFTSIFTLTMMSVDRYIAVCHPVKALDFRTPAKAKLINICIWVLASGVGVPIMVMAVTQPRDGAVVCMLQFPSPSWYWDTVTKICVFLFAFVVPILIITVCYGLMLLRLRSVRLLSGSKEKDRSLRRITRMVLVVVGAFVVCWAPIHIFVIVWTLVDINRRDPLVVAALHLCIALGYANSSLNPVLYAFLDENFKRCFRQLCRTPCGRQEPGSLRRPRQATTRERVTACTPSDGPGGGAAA
UniProt P97266, whole entry: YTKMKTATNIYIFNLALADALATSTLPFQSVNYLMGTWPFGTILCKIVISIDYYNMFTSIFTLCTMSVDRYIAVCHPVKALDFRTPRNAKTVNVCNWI

For assay [1], the target named is Delta-type opioid receptor (Rattus norvegicus, UniProt P33533). Put plainly: Displacement of [3H]deltorphin 2 from delta opioid receptor in rat brain membranes. The class given is cell membranes. An outline of the steps:
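Equilibrium competition binding on P2 membrane preparation of rat brain; mu sites labelled with [3H]DAMGO, delta sites with [3H]deltorphin II. Five to eight graded peptide doses, duplicate wells; Ki via Cheng-Prusoff. Mean ± SEM from three to six independent assays using different synaptosomal preparations.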
In general terms: Loss of bound radioactivity is the signal in a displacement assay; it reports binding, not function.

The species entered for assay [2] is Rattus norvegicus. The assay is described as follows: Selectivity ratio of Ki for rat mu opioid receptor to Ki for rat delta opioid receptor.
The target in assay [3] is Delta-type opioid receptor (Mus musculus, UniProt P32300). Put plainly: Antagonist activity at delta opioid receptor in mouse vas deferens. It counts as functional, tissue-based.
Another assay has as its target Mu-type opioid receptor (Cavia porcellus, UniProt P97266). Put plainly: Antagonist activity at mu opioid receptor in guinea pig ileum. It counts as functional, tissue-based.
Assay [4] is filed under the species Rattus norvegicus. The assay is described as follows: Selectivity ratio of Ki for rat delta opioid receptor to Ki for rat mu opioid receptor.

Each structure is given as a SMILES string. Some results are limits rather than exact numbers.

In the case of `Cc1cc(O)cc(C)c1C[C@H](N)C(=O)N1Cc2ccccc2C[C@H]1C(=O)NCC/C=C/CCNC(=O)[C@@H]1Cc2ccccc2CN1C(=O)[C@@H](N)Cc1c(C)cc(O)cc1C`, the affinity in assay [1], expressed as Ki, was 0.00024 µM. The Ratio Ki in the assay filed under Rattus norvegicus [2] was determined as 6.3. For the same compound, the IC50 (in assay [3]; against Mu-type opioid receptor) was greater than 10 µM each time.

`Cc1cc(O)cc(C)c1C[C@H](N)C(=O)N1Cc2ccccc2C[C@H]1C(=O)O`: the Ratio Ki in the assay filed under Rattus norvegicus [2] was 150.

Consider `Cc1cc(O)cc(C)c1C[C@H](N)C(=O)N1Cc2ccccc2C[C@H]1C(=O)NCCN(CCNC(=O)[C@@H]1Cc2ccccc2CN1C(=O)[C@@H](N)Cc1c(C)cc(O)cc1C)CCNC(=O)[C@@H]1Cc2ccccc2CN1C(=O)[C@@H](N)Cc1c(C)cc(O)cc1C`, for which the Ratio Ki in the assay listed under Rattus norvegicus [2] worked out at 2.1.

Turning to `Cc1cc(O)cc(C)c1C[C@H](N)C(=O)N[C@H]1Cc2ccccc2CN(CC(=O)NCCNC(=O)CN2Cc3ccccc3C[C@H](NC(=O)[C@@H](N)Cc3c(C)cc(O)cc3C)C2=O)C1=O`, the Ratio Ki in the assay listed under Rattus norvegicus [4] is 9.5. The IC50 in assay [3] was greater than 10 µM.

(Values after ChEMBL document CHEMBL1154939, “Novel multiple opioid ligands based on 4-aminobenzazepinone (Aba), azepinoindole (Aia) and tetrahydroisoquinoline (Tic) scaffolds” (Bioorg Med Chem Lett, 2010).)
